The source of these data is patent publication US20010010822A1, “LIPID COMPLEXES AND LIPOSOMES OF HIGHLY INSOLUBLE PLATINUM COMPLEXES” (priority 1999, published 2001).

The series can be described thus: Solubility in water (statement in reaction scheme description).

“diaminocyclohexane-platinum iodide [diaminocyclohexane-platinum iodide (4)]”: the solubility in water result is “only slightly soluble in water”.
